Experimental data as given in PubChem BioAssay (NCI).
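Compound exposure: 48 hours, 5 concentrations, 96-well plates. GI50 = concentration required for 50% inhibition of growth.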

What was measured:
Assay in all cases: NCI tumour cell line growth inhibition, 48 h; in the data active = GI50 below about 0.43 µM; inactive = the rest
A549 NSCLC = system: A549 NSCLC
HOP-18 NSCLC = system: HOP-18 NSCLC
NCI-H322M lung = system: NCI-H322M lung
NCI/ADR-RES ovarian = system: NCI/ADR-RES ovarian
OVCAR-5 ovarian = system: OVCAR-5 ovarian
SK-OV-3 ovarian = system: SK-OV-3 ovarian
SN12C renal = system: SN12C renal
UO-31 renal = system: UO-31 renal

Measured: GI50

CC1CCOC(=O)/C=C/C=C/C(=O)OC2CC3OC4C5OC5(C)C(O)CC4(COC(=O)C1O)C2(C)C31CO1 (stereo not drawn)
inactive: A549 NSCLC 441 nM | HOP-18 NSCLC 920 nM | NCI-H322M lung 497 nM | NCI/ADR-RES ovarian 1480 nM | OVCAR-5 ovarian 531 nM | SK-OV-3 ovarian 523 nM | SN12C renal 559 nM | UO-31 renal 522 nM
